In the experiment the test system is MDA-MB-231 xenograft tumors. As to conditions: treatment every 5 days, from day 15 until day 30.

The structures appear in SMILES notation.

Turning to `COc1cccc2c1C(=O)c1c(O)c3c(c(O)c1C2=O)C[C@@](O)(C(=O)CO)C[C@@H]3O[C@H]1C[C@H](N)[C@H](O)[C@H](C)O1` [doxorubicin], the tumor growth entry is reported as “suppressed tumor growth”.

The record behind these values is US10655130B2, “Modulation of breast cancer growth by modulation of XBP1 activity” (Cornell University, priority 2012, dated 2020).
